Assay results taken from patent US9902713B2, “Neuroprotective compounds and use thereof” (BOARD OF REGENTS OF THE UNIVERSITY OF TEXAS SYSTEM, priority 2013, dated 2018).

Tests used:
degenerating axons = experiment: Silver staining of degenerating axons after blast-mediated TBI; settings: single enantiomers, 3 mg/kg/day
blast-injured mice = experiment: Barnes maze after blast-mediated TBI; type: in vivo; settings: single enantiomers; for percent time in escape area, probe test: IP from 24 hours after injury, 3 mg/kg/day
[1] = system: dopaminergic neurons within the substantia nigra; experiment: MPTP model of Parkinson's disease, TH+ neurons in SNc; type: in vivo, mice; settings: IP, BID, 21 d, FIG. 3
[2] = system: newborn hippocampal neurons; experiment: In vivo neuroprotection assay: BrdU+ newborn hippocampal neurons; settings: ICV 0.5 μL/h, 7 days, FIG. 2

SMILES: COc1cccc(NCC(F)Cn2c3ccc(Br)cc3c3cc(Br)ccc32)n1 (single isomer, unassigned)
- axonal degeneration, CA1 stratum radiatum (degenerating axons): did not
- axonal degeneration, cerebellar molecular layer (degenerating axons): not
- silver staining in CA1, corpus callosum, thalamus, cortex, olfactory bulb, striatum, dentate gyrus, cerebellum (degenerating axons): prominent silver staining of degenerating axons
- percent quadrant time, probe test (blast-injured mice; 3 mg/kg/d IP): some protection at the margin of statistical significance
- percent target entry, probe test (blast-injured mice; 3 mg/kg/d IP): same deficit as blast-injured mice treated with vehicle
- learning (percent latency to escape) (blast-injured mice; 3 mg/kg/day from 24 hours after injury): learned significantly worse than sham-injury mice
- percent time in escape area, probe test (blast-injured mice): no efficacy
- percent time in escape area, probe test (blast-injured mice; listed as B): inactive
- neuroprotection by single enantiomers [1]: indistinguishable from vehicle treatment
- neuroprotective activity of pure enantiomers ([2]; listed as (+)-enantiomer): little activity
- neuroprotective activity of pure enantiomers ([2]; listed as its enantiomer): no neuroprotective activity
